Reference: PubChem BioAssay AID588405 (Sanford-Burnham Center for Chemical Genomics, 2011)
This is a selection; strong and weak results do not stand in their true shares. The source made the active and inactive calls.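 How the source made its calls: active means inhibition of at least 50% at 20 µM; inactive means the rest.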

Experiment: Peg3 promoter-driven luciferase inhibitors, primary screen, cell-based, HeLa, luciferase luminescence (AID 588405)
Conditions: HeLa PEG-Prom luciferase reporter, overnight, at 20 µM, active compounds read high
With O=C(O)CNc1ccc([As](=O)(O)O)cc1 the inhibition was inactive: -2.95%.
In the case of COC(=O)C1(C)COP(=O)(Nc2ccccc2)OC1 (stereo not drawn), the inhibition was inactive: 8.66%.
In the case of O=[N+]([O-])c1cccc(NC2=NCC(CBr)S2)c1 (stereo not drawn), the inhibition was inactive: 8.59%.
With O=[N+]([O-])c1ncn(CCn2ncnc2[N+](=O)[O-])n1 the inhibition was inactive: 1.78%.
For CC(C)(C)C(=O)NC(Sc1ccncn1)C(Cl)(Cl)Cl (stereo not drawn), the inhibition was inactive: 6.32%.
In the case of O=C(Nc1cc([As](=O)(O)O)ccc1O)c1ccccc1, the inhibition was inactive: 3.65%.
For O=P1(N(CCCl)CCCl)OCCCS1 (stereo not drawn), the inhibition was inactive: 20.7%.
With CC1CCN(C(=O)Oc2c(Cl)cc(Cl)c3cccnc23)CC1 the inhibition was inactive: -7.77%.
With c1cc(-c2nn[nH]n2)ccc1-c1nn[nH]n1 the inhibition was inactive: 7.01%.
For CC(C)c1nc(Nc2ccccc2)n(P(=O)(N(C)C)N(C)C)n1, the inhibition was inactive: 4.74%.
In the case of CC(C)=N/N=C(\N)N[N+](=O)[O-], the inhibition was inactive: -9.05%.
For CN(C)C(=O)OCCc1n(C)cc[n+]1C, the inhibition was inactive: 6.44%.
With CCN(/C(=N/P(=O)(N1CCOCC1)N1CCOCC1)N1CCOCC1)c1ccc(OC)cc1 the inhibition was inactive: 12.7%.
For Nc1ccc([As](=O)(O)c2ccc(N)cc2)cc1, the inhibition was inactive: -52.7%.
For C[N+]1=C2C=CC=CC=C2SC12C([N+](=O)[O-])=CC([N+](=O)[O-])=C[C-]2[N+](=O)[O-] (stereo not drawn), the inhibition was active: 75.8%.
For Cc1ccc(NP(=O)(Oc2ccccc2)Oc2ccccc2)nc1, the inhibition was inactive: -1.16%.
For CCc1nc2c(n1)c1c(non1O)c1c2no[n+]1[O-], the inhibition was inactive: 31.3%.
For O=[N+]([O-])c1cc([N+](=O)[O-])c(CCNc2ccccc2)c([N+](=O)[O-])c1, the inhibition was inactive: 4.06%.
In the case of O=[N+]([O-])c1cccc2n[nH]nc12, the inhibition was inactive: 14.5%.
In the case of CC(=O)N1C2C3N(C(C)=O)C1C1N(C(C)=O)C(C(N1C(C)=O)N3C(C)=O)N2C(C)=O, the inhibition was inactive: 20.9%.
With COc1ccc(C2=NCC(CBr)S2)cc1 (stereo not drawn) the inhibition was inactive: -12.1%.
With O=[N+]([O-])C1C(O)C(O)C([N+](=O)[O-])C(O)C1O (stereo not drawn) the inhibition was inactive: 8.27%.
With Oc1ccccc1CNc1ccccn1 the inhibition was inactive: -36.3%.
For O=C(NC(Sc1ccncn1)C(Cl)(Cl)Cl)c1ccccc1 (stereo not drawn), the inhibition was inactive: 3.66%.
With Nc1cc(N)c2nonc2c1[N+](=O)[O-] the inhibition was inactive: 7.06%.
For CC(C)CC(=O)NC(Sc1ccc(Cl)cc1)C(Cl)(Cl)Cl (stereo not drawn), the inhibition was inactive: 9.45%.
With CN1CCCC(OC(=O)C(c2ccccc2)c2ccccc2)C1 (stereo not drawn) the inhibition was inactive: -3.2%.
In the case of Clc1ccc(Cl)c(NC2=NCC(CBr)S2)c1 (stereo not drawn), the inhibition was inactive: 3.31%.
